IC50 data for 13 compounds are collected here from patent publication US9856252B2, “2-(hetero)aryl-benzimidazole and imidazopyridine derivatives as inhibitors of asparagime emethyl transferase” (Cancer Therapeutics CRC Pty Ltd, priority 2013, dated 2018).

Sequences of proteins named here, by UniProt entry; tags and fusion partners are left off.
UniProt O14744, whole entry: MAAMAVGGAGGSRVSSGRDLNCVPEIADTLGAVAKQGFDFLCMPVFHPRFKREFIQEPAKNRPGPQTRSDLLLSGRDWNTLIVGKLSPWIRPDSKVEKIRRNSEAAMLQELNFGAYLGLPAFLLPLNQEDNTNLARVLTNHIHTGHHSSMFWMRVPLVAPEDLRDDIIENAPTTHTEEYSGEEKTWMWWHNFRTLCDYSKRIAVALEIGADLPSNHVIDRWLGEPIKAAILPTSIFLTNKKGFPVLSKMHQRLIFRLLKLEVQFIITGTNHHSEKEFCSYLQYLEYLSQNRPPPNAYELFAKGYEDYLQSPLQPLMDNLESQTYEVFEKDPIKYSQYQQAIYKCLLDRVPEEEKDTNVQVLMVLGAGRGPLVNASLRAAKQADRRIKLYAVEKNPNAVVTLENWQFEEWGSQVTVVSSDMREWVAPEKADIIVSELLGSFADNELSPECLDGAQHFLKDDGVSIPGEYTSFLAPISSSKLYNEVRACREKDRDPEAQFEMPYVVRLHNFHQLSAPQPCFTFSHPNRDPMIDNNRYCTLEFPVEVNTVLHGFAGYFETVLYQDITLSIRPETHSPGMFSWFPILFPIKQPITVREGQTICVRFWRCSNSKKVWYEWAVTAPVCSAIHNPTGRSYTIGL

Molecules are shown by their SMILES.

The assay concerns the target Full-length PRMT5 enzyme (NCBI Reference sequence NP_006100.2) co-expressed with His6-MEP50 (Homo sapiens (Human), UniProt O14744). Put plainly: PRMT5 Biochemical Assay. Particulars: histone H4 derived peptide substrate 200 nM, 1 μM S-Adenosyl methionine, 4 hours at 37° C., Transcreener EPIGEN fluorescence polarisation. As for the experimental part: Compounds of the invention may be tested for in vitro activity in the following assay: A histone H4 derived peptide is used as substrate (amino acid sequence: […]N H2). Full-length PRMT5 enzyme (NCBI Reference sequence NP_006100.2) was co-expressed with His6-MEP50 in insect cells and purified via Nickel immobilized metal affinity and gel filtration chromatography (“the enzyme”).
The 6 μL assay reactions are run in Greiner brand black 384-well low volume plates. All reactions contained assay buffer (phosphate buffered saline, 0.01% (v/v) Tween-20, 0.01% (w/v) albumin from chicken egg white, 1 mM dithiothreitol, 200 nM peptide substrate, 1 μM S-Adenosyl methionine, and 15 ng/reaction enzyme, with the enzyme being omitted from negative control reactions. Compounds were added in a volume of 100 nL from dilution series prepared in DMSO, positive and negative control reactions receiving the same volume DMSO without compound. The plates were sealed with adhesive seals and incubated for 4 hours at 37° C. Reaction progress was measured using the Transcreener™ EPIGEN methyltransferase assay (BellBrook Labs, Madison, Wis.) as recommended by the manufacturer. To each reaction 2 μL detection mix were added, containing coupling enzymes, fluorescence polarisation tracer, and AMP antibody. Plates were incubated for 90 minutes before being read on a PerkinElmer EnVision™ plate reader in fluorescence polarisation mode.
Background: Fluorescence polarisation rises when a labelled molecule tumbles more slowly, as on binding a larger partner.
`c1ccc(COc2ccc(-c3nc4ncccc4[nH]3)cc2)cc1` [Example 2, 2-(4-(benzyloxy)phenyl)-1H-imidazo[4,5-b]pyridine]: the IC50 (in general, the concentration needed to halve the response being measured) is 2220 nM.
Then `c1ccc(OCc2ccc(-c3nc4cc(C5CCNCC5)cnc4[nH]3)cc2)cc1` [Example 9, 2-(4-(phenoxymethyl)phenyl)-6-(piperidin-4-yl)-3H-imidazo[4,5-b]pyridine], with 431 nM.
Then `c1ccc(COc2ccc(-c3nc4cc(C5CCNCC5)cnc4[nH]3)cc2)cc1` [Example 12, 2-(4-(benzyloxy)phenyl)-6-(piperidin-4-yl)-3H-imidazo[4,5-b]pyridine], with 122 nM; and `c1ccc(COc2ccc(-c3nc4ccc(OC5CCNCC5)nc4[nH]3)cc2)cc1` [Example 18, 2-(4-(benzyloxy)phenyl)-5-(piperidin-4-yloxy)-3H-imidazo[4,5-b]pyridine], with 914 nM; and `CC(C)(C)OC(=O)N1CCCC(c2ccc3nc(-c4ccc(COc5ccccc5)cc4)[nH]c3n2)C1` (stereo not shown) [Example 34, tert-butyl 3-(2-(4-(phenoxymethyl)phenyl)-3H-imidazo[4,5-b]pyridin-5-yl)piperidine-1-carboxylate], with 1050 nM.
Then `c1ccc(COc2ccc(-c3nc4ccc(-c5ccncc5)nc4[nH]3)cc2)cc1` [Example 37, 2-(4-(benzyloxy)phenyl)-5-(pyridin-4-yl)-3H-imidazo[4,5-b]pyridine], with 592 nM; and `Cc1cc(C2CCNCC2)cc2[nH]c(-c3ccc(OCc4ccccc4)cc3)nc12` [Example 49, 2-(4-(benzyloxy)phenyl)-4-methyl-6-(piperidin-4-yl)-1H-benzo[d]imidazole], with 2620 nM; and `CCOC(=O)Cc1ccnc2[nH]c(-c3ccc(OCc4ccccc4)cc3)nc12` [Example 76, ethyl 2-(2-(4-(benzyloxy)phenyl)-3H-imidazo[4,5-b]pyridin-7-yl)acetate], with 2100 nM.
In turn, `CC(C)(C)OC(=O)N1CCC(c2ccc3nc(-c4ccc(COc5ccccc5)cc4)[nH]c3n2)CC1` [Example 84, tert-butyl 4-(2-(4-(phenoxymethyl)phenyl)-3H-imidazo[4,5-b]pyridin-5-yl)piperidine-1-carboxylate] yielded a 50% inhibitory concentration (IC50) of 866 nM.
As for `c1ccc(COc2ccc(-c3nc4cc(N5CCNCC5)cnc4[nH]3)cc2)cc1` [Example 100, 2-(4-(benzyloxy)phenyl)-6-(piperazin-1-yl)-3H-imidazo[4,5-b]pyridine], the figure is 327 nM; as for `CC1(O)CCN(c2ccc3nc(-c4ccc(OCc5ccccc5)cc4)[nH]c3n2)CC1` [Example 101, 1-(2-(4-(benzyloxy)phenyl)-3H-imidazo[4,5-b]pyridin-5-yl)-4-methylpiperidin-4-ol], 224 nM; as for `c1ccc(OCc2nc(-c3nc4cc(C5CCNCC5)cnc4[nH]3)cs2)cc1` [Example 102, 2-(phenoxymethyl)-4-(6-(piperidin-4-yl)-3H-imidazo[4,5-b]pyridin-2-yl)thiazole], 1110 nM.
In turn, `c1ccc(Cn2cc(-c3nc4cc(C5CCNCC5)cnc4[nH]3)cn2)cc1` [Example 104, 2-(1-benzyl-1H-pyrazol-4-yl)-6-(piperidin-4-yl)-3H-imidazo[4,5-b]pyridine] came in with a half-maximal inhibitory concentration (IC50) of 2650 nM.
